Among the data in US9556229B2, “Modification of peptides using a bis(thioether)arylbridge approach” (priority 2012, dated 2017) are EC50 values, retold here.

The assay deals with HCT116 colorectal cancer cells.

For orientation: EC50 means the concentration at which the effect is half-maximal. Read a high EC50 as lower potency in that assay. The molecule `C[C@@H](O)[C@H](N)C(=O)N[C@@H](CO)C(=O)N[C@@H](Cc1ccccc1)C(=O)N[C@@H](CCCNC(=N)N)C(=O)N[C@@H](CCCNC(=N)N)C(=O)N[C@@H](Cc1ccc(O)cc1)C(=O)N[C@H]1CSCc2cccc(c2)CSC[C@H](C(=O)N[C@@H](CO)C(=O)N2CCC[C@H]2C(N)=O)NC(=O)[C@H](CCCNC(=N)N)NC(=O)[C@H](CCCNC(=N)N)NC1=O` [ArB14Em] returned an EC50 of 114 µM.
